Structures are written as SMILES.

The test system of this assay is BMP response element (BRE) luciferase reporter in HuH7 cells, BMP6 stimulated. Put plainly: BMP signaling reporter gene assay. Type of assay: cell-based. Conditions: Homo sapiens, Huh-7, 5 h, read-out: MSD BMP RGA IC50. A general note: In a reporter assay the amount or activity of a reporter protein is the signal.
As usually defined, the IC50 is the concentration that gives 50% inhibition. For the molecule `Nc1ncc(-c2ccc(N3CCOCC3)cc2)cc1C(=O)NC1CCCCC1` [Example 49, 2-amino-N-cyclohexyl-5-(4-morpholinophenyl)nicotinamide], the IC50 is 790 nM.
For the molecule `C[C@@H]1CCCN1Cc1ccc(-c2cnc(N)c(C(=O)N[C@H]3CC[C@](C)(O)CC3)c2)cc1` [Example 72, 2-amino-N-((1r,4R)-4-hydroxy-4-methylcyclohexyl)-5-(4-(((R)-2-methylpyrrolidin-1-yl)methyl)phenyl)nicotinamide], the IC50 was found to be 190 nM.
For the molecule `Nc1ncc(-c2ccc(C3CCNC3)cc2)cc1C(=O)N[C@H]1CC[C@H](O)CC1` (stereo partly shown) [Example 18, 2-amino-N-((1r,4r)-4-hydroxycyclohexyl)-5-(4-(pyrrolidin-3-yl)phenyl)nicotinamide], the IC50 was found to be 2000 nM.
With `CC(C)N1CCC(c2ccc(-c3cnc(N)c(C(=O)N[C@H]4CC[C@H](O)CC4)c3)cc2)C1` (stereo partly shown) [Example 12, 2-amino-N-((1r,4r)-4-hydroxycyclohexyl)-5-(4-(1-isopropylpyrrolidin-3-yl)phenyl)nicotinamide], the IC50 came out at 125 nM.

Values taken from patent publication US10710980B2, “Aminopyridine derivatives and their use as selective ALK-2 inhibitors” (priority 2016, dated 2020).
